Data taken from PubChem BioAssay AID686970 (National Center for Advancing Translational Sciences (NCATS), 2013).
The entries are a selection whose mix differs from that of the whole data set. Inconclusive results are not listed. Activity calls are given as the source filed them. The call rests on the fitted dose curve; in most records, active means well fitted cell-killing curve with a large enough effect; inconclusive means small, poorly fitted or top-dose-only effect, or effect the other way; inactive means flat fitted curve, though single readings scatter.

assay: qHTS for induction of synthetic lethality in tumor cells producing 2HG: qHTS for the HT-1080-NT fibrosarcoma cell line; settings: HT-1080-NT fibrosarcoma viability, CellTiter-Glo ATP luminescence, 48 h; series mostly up to 46.1 µM; activity, negative = less viability: at the top concentration;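 further: NT is the 2HG producing partner of a matched IDH1 knockdown line; nearly all actives have a fitted effect of over 55% in size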;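 on activity, negative = less viability: 0% = DMSO-treated cells and -100% = media-only wells without cells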
Potency means the concentration at half of the fitted maximal effect.

Structure (SMILES)	activity, negative = less viability	Potency
O=C(OC1CN2CCC1CC2)c1cccc2[nH]cnc12 (centres undefined)	inactive: 3.3%	
CC(C)NC(=O)NP(=O)(Oc1ccccc1)Oc1ccccc1	inactive: 7.1%	
CC(C)c1ccc(OP(=O)(Nc2ccccn2)Oc2ccccc2F)cc1 (centres undefined)	inactive: 0.189%	
COC(=O)C1(C)COP(=O)(N2CCCCCC2)OC1 (centres undefined)	inactive: 21.1%	
ClCCSc1nnc(-c2cccnc2)o1	inactive: 16.4%	
Cc1ccc2nc3c(c(C)c2c1)CC(C(Cl)Cl)S3 (centres undefined)	inactive: -13.8%	
[N-]=[N+]=NC1CCCCC1NC(=O)c1cc([N+](=O)[O-])cc([N+](=O)[O-])c1 (centres undefined)	inactive: -27.5%	
Cc1ccc(OP(=O)(Nc2ccc([N+](=O)[O-])cn2)Oc2ccc(C)cc2)cc1	inactive: 13.4%	
C[As](=O)(O)c1cccc(C(=O)O)c1	inactive: -6.36%	
O=[As](O)(c1ccc(O)cc1)c1ccccc1O	inactive: 12%	
COc1ccc(N/C(=N/P(=O)(N2CCOCC2)N2CCOCC2)N2CCOCC2)cc1	inactive: 13.2%	
O=[N+]([O-])c1cc(Oc2ccc([N+](=O)[O-])cc2C(F)(F)F)cc([N+](=O)[O-])c1	inactive: 1.52%	
COc1ccc2nc(NP(=O)(c3ccccc3)c3ccccc3)sc2c1	inactive: -8.51%	
COc1cc(I)ccc1[As](=O)(O)O	inactive: -18.9%	
O=P1(N(CCCl)CCCl)OCCCN1CCCl (centres undefined)	inactive: 2.82%	
O=P1(N(CCCl)CCCl)Nc2ccccc2N1	inactive: -2.6%	
Cc1cc(=O)[nH]c(N[N+](=O)[O-])n1	inactive: -1.68%	
Cc1c2c(nc3ccccc13)SC(C(Cl)Cl)C2 (centres undefined)	inactive: 5.09%	
CCC(C)N(CC(C)C)C(=S)SC(NC(C)=O)C(Cl)(Cl)Cl (centres undefined)	inactive: -15.7%	
CCOC(=O)c1ccc(NC(=O)C(C)(CCl)SC)cc1 (centres undefined)	inactive: 1.94%	
O=C(OC1CN2CCC1CC2)c1cccc([N+](=O)[O-])c1 (centres undefined)	inactive: 0.494%	
O=C(COc1ccccc1)OC1CN2CCC1CC2 (centres undefined)	inactive: 12.2%	
O=C(Nc1ccncc1[N+](=O)[O-])c1ccc([N+](=O)[O-])cc1[N+](=O)[O-]	inactive: -14.5%	
O=C(O)C(=O)c1ccc(N(CCCl)CCCl)cc1	inactive: -4.81%	

Structure (SMILES)	activity, negative = less viability	Potency
COP1(=S)c2c(C)nn(CCC#N)c2N=C(c2ccc(F)cc2)N1C (centres undefined)	inactive: -3%	
COC(=O)C1(C)COP(=O)(N2CCCC2)OC1 (centres undefined)	inactive: 25.5%	
O=[N+]([O-])c1ccc(Nc2ccc(Oc3ccc([N+](=O)[O-])cc3[N+](=O)[O-])cc2)c([N+](=O)[O-])c1	inactive: 3.78%	
O=P(Nc1ccccn1)(c1cccc2ccccc12)c1cccc2ccccc12	inactive: -27.1%	
Cc1cc(SC(NC=O)C(Cl)(Cl)Cl)ncn1 (centres undefined)	inactive: -2.58%	
CCOC(=O)Nc1cccc([As](=O)(O)O)c1	inactive: 13.8%	
Cc1cc(SC(NC(=O)c2ccccc2)C(Cl)(Cl)Cl)nc(C(C)C)n1 (centres undefined)	inactive: -8.44%	
COP(=O)(OC)N1CC1c1ccccc1 (centres undefined)	inactive: 3.18%	
CC1CCNP(=O)(N(CCCl)CCCl)O1 (centres undefined)	inactive: -0.563%	
O=C(O)C(O)c1ccc(N(CCCl)CCCl)cc1 (centres undefined)	inactive: -7%	
O=P1(Nc2ccc(Br)cn2)COc2ccccc2OC1	inactive: 3.62%	
NS(=O)(=O)c1cccc(NC(=O)COC(=O)C(O)(c2ccccc2)c2ccccc2)c1	inactive: -3.55%	
Cc1ccc(OCC(=O)OC2CN3CCC2CC3)cc1 (centres undefined)	inactive: 11.9%	
O=[As](O)(c1cccs1)c1cccs1	inactive: -0.333%	
Nc1cccc([As](=O)(O)c2ccccc2)c1	inactive: 0%	
O=P1(Nc2ncccn2)COc2ccccc2OC1	inactive: 17%	
Cc1ccc(S(=O)(=O)N(CCCN)CCCc2c(C)nc(N)[nH]c2=O)cc1	inactive: -14.1%	
O=C(/C=C/c1ccccc1)OC1CN2CCC1CC2 (centres undefined)	inactive: 1.54%	
CCCC1OP(=O)(Nc2ccccc2)OCC1CC (centres undefined)	inactive: 1.28%	
Cc1nn(-c2ccccc2)c2c1P(=O)(N1CCOCC1)N(C)C(c1ccccc1)=N2 (centres undefined)	inactive: 18.8%	
CC1CCC(C(C)C)C(OP(=O)(Nc2ccccn2)c2ccccc2)C1 (centres undefined)		active: 23.1 µM
Cc1ccc(C(=O)OC2CN3CCC2CC3)cc1 (centres undefined)	inactive: -16.9%	
CC1(CBr)Cn2c(nc3ccccc3c2=O)S1 (centres undefined)	inactive: 2.24%	
CC(C)/C=N\N=C(\N)N[N+](=O)[O-]	inactive: -2.67%	

Structure (SMILES)	activity, negative = less viability	Potency
CN(C(=O)Cc1ccc(Cl)c(Cl)c1)[C@@H]1CCCC[C@H]1N1CCCC1	inactive: -15.1%	
COc1ccccc1CNC(=O)COC(=O)C(O)(c1ccccc1)c1ccccc1	inactive: 1.61%	
O=P1(N(CCCl)CCCl)NCCC(C(F)(F)F)O1 (centres undefined)	inactive: -1.32%	
Clc1n[nH]nc1-c1nn[nH][15n]1	inactive: -3.26%	
CC(C)(C)C(=O)NC(Sc1ncccn1)C(Cl)(Cl)Cl (centres undefined)	inactive: 0%	
CN(CCCl)Cc1cc(Cl)c(NC2=NCCN2)c(Cl)c1	inactive: -10.4%	
CCOP(=O)(Nc1ccc(C)cn1)OCC	inactive: 1.33%	
O=P1(Nc2ccccn2)COc2ccccc2OC1	inactive: 8.85%	
CCOP(=O)(NC(=NC(C)c1ccccc1)NC(C)c1ccccc1)OCC (centres undefined)	inactive: 6.9%	
COc1cc(C2NCCC3(OCCO3)C2(C)C)cc(OC)c1OC (centres undefined)	inactive: -0.176%	
CCOP(=O)(Nc1cccc2ccccc12)OCC	inactive: 6.01%	
CCCOP(=S)(Nc1nc(N)cc(=O)[nH]1)OCCC	inactive: 9.19%	
Cc1ccc(NCCc2c([N+](=O)[O-])cc([N+](=O)[O-])cc2[N+](=O)[O-])cc1	inactive: 3.06%	
Nc1cccc2c([As](=O)(O)O)cccc12	inactive: 3.02%	
O=[As](O)(c1cccc(O)c1)c1cccc(O)c1	inactive: 8.34%	
Cc1cccc(OCC(=O)OC2CN3CCC2CC3)c1 (centres undefined)	inactive: 16.3%	
O=[As](O)(O)c1cccnc1	inactive: 4.35%	
CS(=O)(=O)c1ccc(Cl)c(NC(=O)COC(=O)C(O)(c2ccccc2)c2ccccc2)c1	inactive: 3.21%	
O=C(OC1CN2CCC1CC2)c1ccc(Cl)cc1 (centres undefined)	inactive: 5.77%	
CN(C)C(=O)c1cc([N+](=O)[O-])cc2c1-c1c(cc([N+](=O)[O-])cc1[N+](=O)[O-])C2=O		active: 10.3 µM
O=[N+]([O-])c1ccc2c(c1)nnn2O	inactive: -4.96%	
CN(C(=O)Cc1ccc(Cl)c(Cl)c1)[C@H]1CC[C@@]2(CCCO2)C[C@@H]1N1CCCC1	inactive: -1.68%	
N#CCCN(C(=O)COC(=O)C(O)(c1ccccc1)c1ccccc1)c1ccc(F)cc1	inactive: -6.64%	
CN(C(=O)Cc1ccccc1)[C@@H]1CC[C@]2(CCCO2)C[C@H]1N1CCCC1	inactive: 2.91%	

Structure (SMILES)	activity, negative = less viability	Potency
CCOP1(=S)c2c(C)nn(CCC#N)c2N=C(c2ccc(F)cc2)N1C (centres undefined)	inactive: -17.1%	
NC(=O)Nc1ccc([As](=O)(O)O)cc1	inactive: 4.13%	
Nc1ccccc1[As](=O)(O)c1ccccc1	inactive: 10.9%	
O=C(O)COc1ccc([As](=O)(O)O)cc1[N+](=O)[O-]	inactive: 12.5%	
CS(=O)(=O)c1cc([N+](=O)[O-])c2no[n+]([O-])c2c1	inactive: 5.62%	
CCOP1(=S)c2c(C)nn(CCC#N)c2N=C(c2ccccc2F)N1C (centres undefined)	inactive: -7.06%	
O=P(Nc1nccs1)(c1ccccc1)c1nc2ccccc2s1 (centres undefined)	inactive: -1.06%	
O=P(Nc1nccs1)(Oc1ccccc1)Oc1ccccc1	inactive: 6.32%	
Cc1ccccc1OP(=O)(Nc1ccccn1)Oc1ccccc1C	inactive: -16.8%	
CC(NC(=O)COC(=O)C(O)(c1ccccc1)c1ccccc1)c1ccccc1 (centres undefined)	inactive: 1.86%	
CN(C)C(=O)Oc1noc2ccccc12	inactive: 4.87%	
O=c1c2cc([N+](=O)[O-])ccc2[nH]c2c([N+](=O)[O-])cc([N+](=O)[O-])cc12		active: 3.26 µM
COC(=O)c1cc2c(s1)N=C(c1ccccc1)N(C)P2(=O)N1CCOCC1 (centres undefined)	inactive: 15%	
CC(=O)NC(SC(=S)N(CC(C)C)CC(C)C)C(Cl)(Cl)Cl (centres undefined)	inactive: 3.4%	
Cc1ccc(OP(=O)(Nc2ccccn2)Oc2ccc(C)cc2)cc1	inactive: -8.44%	
O=C(OC1CN2CCC1CC2)c1ccccc1 (centres undefined)	inactive: 15.4%	
CCC(=O)N1C2C3N(C(=O)CC)C1C1N(C(=O)CC)C(C(N1C(=O)CC)N3C(=O)CC)N2C(=O)CC	inactive: 15.4%	
O=P1(N(CCCl)CCCl)OCCC2CCCCN21 (centres undefined)	inactive: 10.8%	
CCNC(=S)/N=C(\N)N[N+](=O)[O-]	inactive: -4.39%	
O=C(NC1CCS(=O)(=O)C1)NP(=S)(Oc1ccccc1)Oc1ccccc1 (centres undefined)	inactive: 7.43%	
c1ccc(-c2nn[nH]n2)c(-c2nn[nH]n2)c1	inactive: 17.2%	
Cc1ccc(NP(=O)(Oc2cccc(C)c2)Oc2cccc(C)c2)nc1	inactive: 13.3%	
CC(=O)Nc1ccc([As](=O)(O)O)c(O)c1	inactive: 4.06%	
CC(=O)Nc1ccc(Oc2c([N+](=O)[O-])cc([N+](=O)[O-])cc2[N+](=O)[O-])cc1	inactive: -18.6%	

Structure (SMILES)	activity, negative = less viability	Potency
N#C/C(=C\c1ccc(N(CCBr)CCBr)cc1)C(N)=O	inactive: -0.369%	
CC(=O)c1ccc(N2CC2c2ccncc2)cc1 (centres undefined)	inactive: 14.2%	
COC(=O)C1(C)COP(=O)(NCc2ccccc2)OC1 (centres undefined)	inactive: 8.9%	
Cc1ccccc1CN(C)C(=O)COC(=O)C(O)(c1ccccc1)c1ccccc1	inactive: -7.07%	
C[C@@H]1C=CCP(=O)(Oc2ccccc2)O1 (some centres undefined)	inactive: 0.0189%	
C[C@H]1OP(=O)(Oc2ccccc2)C[C@@H]2O[C@@H]21 (some centres undefined)	inactive: 4.79%	
CCc1cc(O)c([N+](=O)[O-])c(C)c1[N+](=O)[O-]	inactive: 1.19%	
CC(C)(C)C(=O)NC(Sc1ccccc1)C(Cl)(Cl)Cl (centres undefined)	inactive: 2.08%	
O=P1(Nc2nc3ccc(Cl)cc3s2)COc2ccccc2O1 (centres undefined)	inactive: -3.85%	
CCOc1ccc(C2=NCC(CBr)S2)cc1 (centres undefined)	inactive: 0.158%	
c1nnnn1CCn1cnnn1	inactive: 15.5%	
CC(C)C(=O)NC(Sc1ccccc1)C(Cl)(Cl)Cl (centres undefined)	inactive: 4.63%	
O=P(Nc1nccs1)(c1ccccc1)c1ccccc1	inactive: 12%	
Nc1ccc([As](=O)(O)c2ccc([N+](=O)[O-])cc2)cc1	inactive: 24.6%	
C(Cc1nn[nH]n1)Cc1nn[nH]n1	inactive: 15.7%	
O=C(OC1CN2CCC1CC2)c1cccc(Cl)c1 (centres undefined)	inactive: 8.79%	
CC(=O)NC(SC(=S)N(C)C)C(Cl)(Cl)Cl (centres undefined)	inactive: 1.09%	
O=[N+]([O-])c1ncn(CCn2cnc([N+](=O)[O-])n2)n1	inactive: 1.41%	
O=[As](O)(c1ccccc1)c1ccc(O)cc1	inactive: 12.7%	
C[C@H]1OP(=O)(Oc2ccccc2)[C@H](O)[C@H](O)[C@H]1N=[N+]=[N-] (some centres undefined)	inactive: -0.0888%	
Nc1ccc(CCCCOc2ccccc2)cc1	inactive: -24.9%	
COc1ccc(N)c([N+](=O)[O-])c1[N+](=O)[O-]	inactive: -15.3%	
O=[N+]([O-])c1cccc(NC2=NCC(CBr)S2)c1 (centres undefined)	inactive: 0.772%	
